Source: PMC2818678 (Bioorganic & medicinal chemistry, 2009)

By UniProt entry, the sequences of proteins in these tests, tags left out.
UniProt P0DMS8, whole entry: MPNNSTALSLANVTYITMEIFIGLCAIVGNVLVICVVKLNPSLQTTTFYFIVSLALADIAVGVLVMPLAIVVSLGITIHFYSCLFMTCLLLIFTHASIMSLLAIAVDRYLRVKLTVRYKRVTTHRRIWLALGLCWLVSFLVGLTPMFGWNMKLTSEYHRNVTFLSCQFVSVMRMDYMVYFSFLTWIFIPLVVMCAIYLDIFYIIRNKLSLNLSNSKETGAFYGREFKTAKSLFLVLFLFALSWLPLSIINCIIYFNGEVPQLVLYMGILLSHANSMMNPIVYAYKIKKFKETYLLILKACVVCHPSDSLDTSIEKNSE

Target: human A3AR (Homo sapiens, UniProt P0DMS8)
Assay: Inhibition of forskolin-stimulated cAMP production in A3AR-expressing CHO cells
Assay type: cell-based
Conditions: inhibition of forskolin-stimulated cAMP at 10 μM, NECA as reference standard

2-chloro-N^6-(3-iodobenzyl)-5′-N-methylcarboxamidoadenosine [Cl-IB-MECA, reference compound]
A3AR agonist efficacy (in words): full agonists
